Ki data for one molecule are collected here from ChEMBL document CHEMBL1125222, “Activity of N6-substituted 2-chloroadenosines at A1 and A2 adenosine receptors” (J Med Chem, 1991).

Amino acid sequences for entries named in this document (tags omitted).
UniProt P30543, whole entry: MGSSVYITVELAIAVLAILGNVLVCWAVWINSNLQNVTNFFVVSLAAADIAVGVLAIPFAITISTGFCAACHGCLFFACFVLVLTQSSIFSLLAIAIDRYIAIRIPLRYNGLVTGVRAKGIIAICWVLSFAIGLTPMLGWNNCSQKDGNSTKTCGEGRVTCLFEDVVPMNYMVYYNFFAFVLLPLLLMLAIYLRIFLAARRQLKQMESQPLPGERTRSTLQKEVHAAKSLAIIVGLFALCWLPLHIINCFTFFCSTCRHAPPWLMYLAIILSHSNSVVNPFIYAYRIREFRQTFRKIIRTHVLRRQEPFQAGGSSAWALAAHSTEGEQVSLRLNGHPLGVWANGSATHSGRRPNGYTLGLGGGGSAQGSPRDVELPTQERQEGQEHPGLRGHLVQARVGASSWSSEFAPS

The target of this test is Adenosine receptor A2a (Rattus norvegicus, UniProt P30543). As to the kind of experiment: Inhibition of [3H]- NECA binding to adenosine receptor A2A.

With `Nc1nc(Cl)nc2c1ncn2[C@@H]1O[C@H](CO)[C@@H](O)[C@H]1O`, the affinity, expressed as Ki, was 76 nM.
